Test results published in patent publication EP2929785A1, “A PLA inhibitor for inhibition of fat absorption” (PAT GmbH, priority 2014, dated 2015).

Legend:
HepG2 cells = assay: Fatty acid ([3H]oleate:albumin) influx in HepG2 cells; assay type: cell-based, human
cytosolic LPC = assay: Cytosolic LPC concentration in HepG2 cells; assay type: cell-based, human; conditions: read-out: suppression of cytosolic LPC (IC50); 30 min treatment (Fig. 7)

For CCCCC/C=C\C/C=C\C/C=C\C/C=C\CCCCOP(=O)(F)OC (stereo not shown), the “Vmax of [3H]oleate influx” value (HepG2 cells; pretreatment UDCA-LPE 100 µM, 1 h or MAFP 150 µM, 1 h, control 61.80) was 26.38 nmol/mg protein/min, the Km (HepG2 cells; read-out: Km of [3H]oleate influx, pretreatment UDCA-LPE 100 µM, 1 h or MAFP 150 µM, 1 h) was 0.303 µM and the IC50 (HepG2 cells; read-out: inhibition of fatty acid influx (IC50), 1-h treatment with increasing concentrations (Fig. 2A)) was 56 µM. The IC50 (cytosolic LPC) was 62 µM.
